Tests used:
[1] = target: T1, Sigma non-opioid intracellular receptor 1 (Homo sapiens, UniProt Q99720); assay: Compound was evaluated for binding affinity towards sigma opioid receptor using [3H]DTG in guinea pig ileum
[2] = target: T1, Sigma non-opioid intracellular receptor 1; assay: (§1) Compound was evaluated for binding affinity towards sigma opioid receptor using [3H](+)-3-PPP in guinea pig ileum
[3] = target: T1, Sigma non-opioid intracellular receptor 1; assay: ChEBML_201276; procedure: as §1

Amino acid sequences for entries named in this document (tags omitted).
UniProt Q99720, whole entry, looked up: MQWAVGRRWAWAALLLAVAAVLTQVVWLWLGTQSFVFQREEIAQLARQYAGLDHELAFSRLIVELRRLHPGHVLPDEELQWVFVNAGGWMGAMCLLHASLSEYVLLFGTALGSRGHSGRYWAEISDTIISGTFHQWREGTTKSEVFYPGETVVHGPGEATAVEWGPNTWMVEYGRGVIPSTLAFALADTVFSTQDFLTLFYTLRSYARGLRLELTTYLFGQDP

| Compound | Ki [1] [nM] | Ki [2] [nM] | Ki [3] [nM] |
| --- | --- | --- | --- |
| CN(C(=O)Cc1ccc(Cl)c(Cl)c1)[C@H]1CCCC[C@H]1N1CCCC1 | 250 | 81 | – |
| CN(C(=O)Cc1ccc(Cl)c(Cl)c1)[C@H]1CCCC[C@@H]1N1CCCC1 | – | – | 594 |
